Measured values published in patent EP4768477A1 (Yichang Humanwell Pharmaceutical Co., Ltd., priority 2024, dated 2025).

How the values were obtained:
hNOPr = hNOPr (Homo sapiens, UniProt P41146); assay: Radioligand binding affinity test, [3H]-Nociceptin displacement on receptor cell membranes; conditions: for Selectivity hKOR/hNOPr: ratio of Ki values hKOR/hNOPr; for Selectivity hMOR/hNOPr: ratio of Ki values hMOR/hNOPr; for Ki: read-out: Ki (nM) of Affinity of opioid receptor hNOPr, 3H-Nociceptin 0.5 nM, cell membranes containing human NOPr
hMOR = hMOR (Homo sapiens, UniProt P35372); assay: Agonistic function, cAMP method, 293-MOR cells; conditions: for hMOR Emax (%): forskolin; for pEC50: read-out: hMOR EC50, forskolin

SMILES	Selectivity hKOR/hNOPr (hNOPr)	Selectivity hMOR/hNOPr (hNOPr)	Ki (hNOPr)	hMOR Emax (%) (hMOR)	pEC50 (hMOR)
CNC(=O)Cn1c(=S)n(C2CCN(C3CCC(C)(C)CC3)CC2)c2cc(F)c(F)cc21	4.35	10.3	6.77 nM		
CC1(C)CCC(N2CCC(n3c(=O)n(CC(N)=O)c4cc(F)c(F)cc43)CC2)CC1	21.7	14.5	20 nM		
CNC(=O)Cn1c(=O)n(C2CCN(C3CCC(C)(C)CC3)CC2)c2cc(Cl)c(F)cc21				118.7%	6.16
CC1(C)CCC(N2CCC(n3c(=O)n(CS(C)(=N)=O)c4cc(F)c(F)cc43)CC2)CC1 (centres unmarked)				92.2%	6.38
CNC(=O)Cn1c(=O)n(C2CCN(C3CCC4(CC3)CC4)CC2)c2cc(F)c(F)cc21	72.2	49.7	4.78 nM	89.92%	5.79
CC1(C)CCC(N2CCC(n3c(=O)n(CCS(N)(=O)=O)c4cc(F)c(F)cc43)CC2)CC1				101.0%	6.80
CNC(=O)Cn1c(=O)n(C2CCN(C3CCC(F)(F)CC3)CC2)c2cc(F)c(F)cc21		14.6	182 nM		
CS(=O)(=O)Cn1c(=O)n(C2CCN(C3CCC4(CCC4)CC3)CC2)c2cc(F)c(F)cc21				92.2%	6.59
CCS(=O)(=O)NCCN1Cc2cc(F)c(F)cc2N(C2CCN(C3CCC(C)(C)CC3)CC2)C1=O			52.9 nM		
CC1(C)CCC(N2CCC(n3c(=O)n(CC(=O)NCC4CC4)c4cc(F)c(F)cc43)CC2)CC1	2.13	2.41	73.9 nM		
CC(=O)NCCn1c(=O)n(C2CCN(C3CCC(C)(C)CC3)CC2)c2cc(F)c(F)cc21	15.4	2.82	64 nM		
CNC(=O)Cn1c(=O)n(C2CCN(C3CCC(C)(C)CC3)CC2)c2cc(F)c(F)cc21	136	28.1	5.97 nM	86.94%	5.94
CC1(C)CCC(N2CCC(n3c(=O)n(CC(=O)NCCO)c4cc(F)c(F)cc43)CC2)CC1	1.98	1.64	104 nM		
CNC(=O)Cn1c(=O)n(C2CCN([C@H]3CC[C@@H](C(C)C)CC3)CC2)c2cc(F)c(F)cc21 (relative stereo)	3820	185	0.3 nM	80.52%	6.34
CN(C)C(=O)Cn1c(=S)n(C2CCN(C3CCC(C)(C)CC3)CC2)c2cc(F)c(F)cc21	2.47	19.7	3.81 nM		
CCNC(=O)Cn1c(=O)n(C2CCN(C3CCC(C)(C)CC3)CC2)c2cc(F)c(F)cc21	6.86	3.31	32.7 nM	77.24%	6.36
CN(C)C(=O)Cn1c(=O)n(C2CCN(C3CCC(C)(C)CC3)CC2)c2cc(F)c(F)cc21		1.4	269 nM		
CC1(C)CCC(N2CCC(n3c(=O)n(CC(=O)NC4CC4)c4cc(F)c(F)cc43)CC2)CC1	9.98	2.57	36.6 nM		
CS(=O)(=O)Cn1c(=O)n(C2CCN(C3CCC4(CC3)CC4)CC2)c2cc(F)c(F)cc21	88.6	87.6	2.55 nM	101.00%	6.04
Cc1noc(Cn2c(=O)n(C3CCN(C4CCC(C)(C)CC4)CC3)c3cc(F)c(F)cc32)n1	15.1	1.95	72.6 nM		
CC1(C)CCC(N2CCC(n3c(=O)n(CS(C)(=O)=O)c4cc(F)c(F)cc43)CC2)CC1	22.4	11.8	13.7 nM	87.56%	6.15
CC(C)[C@H]1CC[C@@H](N2CCC(n3c(=O)n(CC(=O)N(C)C)c4cc(F)c(F)cc43)CC2)CC1 (relative stereo)	280	20.9	4.89 nM	75.80%	6.27
CCNC(=O)Cn1c(=O)n(C2CCN(C3CCC(F)(F)CC3)CC2)c2cc(F)c(F)cc21		1.81	1450 nM		
CNC(=O)C(C)n1c(=O)n(C2CCN(C3CCC(C)(C)CC3)CC2)c2cc(F)c(F)cc21 (centres unmarked)	15.1	6.88	32.6 nM		
CCOC(=O)Cn1c(=O)n(C2CCN(C3CCC(C)(C)CC3)CC2)c2cc(F)c(F)cc21	10.5	1.18	56.5 nM		

pEC50: −log10 of the molar value.
